In publication PMC10217311 (Gels, 2023):

Columns and labels:
[1] = Method: The thermal stability of drugs is an essential property necessary to control the formulation method of the finished drug. […] Both the temperature at which decomposition begins (Tonset) and the temperature at which mass loss accelerates to its maximum (Tmax) were identified. […]
(§1) XRD, thermal stability (TG), phase transition temperatures (DSC), specific rotation, solubility in water, and lipophilicity were also determined. […]
Thermal stability was assessed using thermogravimetric analyses performed on a Netzsch thermomicrobalance TG 209 F1 Libra. The analysis was conducted under oxidative conditions, with a nitrogen flow (as protective gas) of 10 mL/min, an airflow of 25 mL/min, and a temperature range of 25 to 1000 °C. Samples of roughly 5 mg weight were heated at 10°/min. The onset decomposition temperature was calculated using the intersection of TG curve tangents. The temperatures associated with the quickest sample weight loss were calculated using the first derivative of the TG curve (DTG curve). […]

[2] = remark: listed apart in the source
Method: measurements were made with a 1 nm accuracy in a 10 mm quartz cell over the 190 to 400 nm […]
as §1
Thermal stability was assessed using thermogravimetric analyses performed on a Netzsch thermomicrobalance TG 209 F1 Libra. The analysis was conducted under oxidative conditions, with a nitrogen flow (as protective gas) of 10 mL/min, an airflow of 25 mL/min, and a temperature range of 25 to 1000 °C. Samples of roughly 5 mg weight were heated at 10°/min. The onset decomposition temperature was calculated using the intersection of TG curve tangents. The temperatures associated with the quickest sample weight loss were calculated using the first derivative of the TG curve (DTG curve).
Phase transformation temperatures were registered using a DSC 250 from TA Instruments' Discovery DSC Series (New Castle, Delaware, USA). The aluminum pan with a crimped lid was loaded with the samples, which weighed 5 mg on average. The nitrogen atmosphere used for the measurements was 20 mL/min. […]
The measurement of specif ic rotation [α] was determined with an AUTOPOL IV polarimeter provided by Rudolph Research Analytical (Hackettstown, NJ, USA). […] The optical rotation was determined at the accuracy of 0.001 o at 20.0 ± 0.1 °C and 589 nm wavelength in a TempTrolTM […]

[3] = remark: listed apart in the source
Method: Lipophilicity is essential for predicting the hydrophobicity and partitioning of drugs in biological systems. Therefore, the test was prepared using the shake-flask method.

[4] = Permeation of the active substance through the skin, Franz diffusion cell; type: in vitro ADME, pig; conditions: API in emulsion-based gel formulation
Excerpt: The steady-state flux was estimated from the slope of the linear portion of the plot of cumulative mass in the acceptor phase over time.

Tonset, the onset temperature of the thermal degradation [1]: 160.8 °C
T5%, decomposition temperature, 5% weight loss of the initial mass ([1]; TG, oxidative conditions): 141.6 °C
T50%, decomposition temperature, 50% weight loss of the initial mass ([1]; TG, oxidative conditions): 221.7 °C
Solubility in water [2]: 716 ± 80 µg/mL
log p [3]: 1.336 ± 0.046
Cumulative mass after 24 h of permeation, API named in text [4]: 948.6 ± 87.5 µg IBU/cm^2
Substance: L-phenylalanine ethyl ester ibuprofenate [[PheOEt][IBU]]
